Measurements as given in ChEMBL document CHEMBL2331319, “Development of N-Hydroxycinnamamide-Based Histone Deacetylase Inhibitors with Indole-Containing Cap Group” (ACS Med Chem Lett, 2013).

Target: Histone deacetylase
Experiment: Inhibition of HDAC in human HeLa cell nuclear extract using Boc-Lys(acetyl)-AMC as substrate preincubated with enzyme for 5 mins prior to substrate addition measured after 30 mins by fluorescence assay
Assay type: protein assay

CCCC(CCC)C(=O)N[C@H](COc1ccc(/C=C/C(=O)NO)cc1OC)Cc1c[nH]c2ccccc12 gave an IC50 of 1080 nM.
